Reference: publication PMC3893891 (Journal of biomolecular screening, 2012)

Biological target: T1, Eya2 ED (Homo sapiens, UniProt O00167)
T1 sequence (O00167 253-538): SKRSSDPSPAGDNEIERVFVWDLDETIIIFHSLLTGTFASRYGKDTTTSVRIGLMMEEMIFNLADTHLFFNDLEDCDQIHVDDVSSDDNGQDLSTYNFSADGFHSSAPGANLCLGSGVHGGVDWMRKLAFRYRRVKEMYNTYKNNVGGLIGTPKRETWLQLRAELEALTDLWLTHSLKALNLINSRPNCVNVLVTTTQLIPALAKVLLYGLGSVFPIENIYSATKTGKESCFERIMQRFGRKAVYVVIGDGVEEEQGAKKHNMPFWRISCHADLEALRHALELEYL
Conditions: OMFP substrate

Row | Compound | inhibition of Eya2 ED phosphatase activity (in words)
1 | c1cnc2c(c1)ccc1cccnc12 [1,10-phenanthroline] | inactive
2 | O=C(O)CN(CCN(CC(=O)O)CC(=O)O)CC(=O)O [EDTA] | inhibit
3 | N[C@@H](Cc1ccccc1)C(=O)O [L-phenylalanine] | inactive
